# Data reported in patent US7176283B1, “Protease-activated receptor 3 and uses thereof” (The Regents of the University of California, priority 1996, dated 2007).
# Biological target: human protease-activated receptor 3 (human) (UniProt O00254)
# Test: cell-based or functional assay
substance,measurement,value
α-thrombin (from UniProt P00734 328-363; P00734 364-622) (enzyme),"EC50, phosphoinositide hydrolysis in Cos 7 cells",0.2 nM
